This note sets out measurements from patent US20240174727A1, “LONG-ACTING NATRIURETIC PEPTIDES AND USES THEREOF” (Eli Lilly and Company, priority 2022, published 2024).

Data set [1] can be described thus: Pharmacokinetics in male Sprague Dawley rats. It counts as in vivo. As to conditions: rat, sc, mean, single subcutaneous administration of 200 nMol/kg, plasma; for half-life: read-out: t½ (converted). The method, then:
The pharmacokinetics of the exemplary analogs are evaluated following a single subcutaneous administration of […] to male Sprague Dawley rats. Blood samples are collected over 120 hours, and resulting individual plasma concentrations are used to calculate pharmacokinetic parameters. Peptide plasma (K3 EDTA) concentrations are determined using a qualified LC/MS method that measured the intact mass of the ANP polypeptide. Each peptide and an analog as an internal standard are extracted from 100% specie specified plasma using methanol with 0.1% formic acid. A Thermo Q-Exactive, High Resolution Instrument, and a Thermo Easy Spray PepMap are combined for LC/MS detection.

Data set [2] deals with T1, rat NPRA (Rattus norvegicus, UniProt P18910).
T1 construct: Full-Length cDNA Cloning and Generation of Cell Lines Overexpressing Natriuretic Peptide Receptors (NPRs); expressed in transfected cells; host or cells: Jump-in T-Rex HEK293 cells, pJTI R4 CMV-TO MCS pA vector, tetracycline induction
T1 sequence (P18910 29-1057): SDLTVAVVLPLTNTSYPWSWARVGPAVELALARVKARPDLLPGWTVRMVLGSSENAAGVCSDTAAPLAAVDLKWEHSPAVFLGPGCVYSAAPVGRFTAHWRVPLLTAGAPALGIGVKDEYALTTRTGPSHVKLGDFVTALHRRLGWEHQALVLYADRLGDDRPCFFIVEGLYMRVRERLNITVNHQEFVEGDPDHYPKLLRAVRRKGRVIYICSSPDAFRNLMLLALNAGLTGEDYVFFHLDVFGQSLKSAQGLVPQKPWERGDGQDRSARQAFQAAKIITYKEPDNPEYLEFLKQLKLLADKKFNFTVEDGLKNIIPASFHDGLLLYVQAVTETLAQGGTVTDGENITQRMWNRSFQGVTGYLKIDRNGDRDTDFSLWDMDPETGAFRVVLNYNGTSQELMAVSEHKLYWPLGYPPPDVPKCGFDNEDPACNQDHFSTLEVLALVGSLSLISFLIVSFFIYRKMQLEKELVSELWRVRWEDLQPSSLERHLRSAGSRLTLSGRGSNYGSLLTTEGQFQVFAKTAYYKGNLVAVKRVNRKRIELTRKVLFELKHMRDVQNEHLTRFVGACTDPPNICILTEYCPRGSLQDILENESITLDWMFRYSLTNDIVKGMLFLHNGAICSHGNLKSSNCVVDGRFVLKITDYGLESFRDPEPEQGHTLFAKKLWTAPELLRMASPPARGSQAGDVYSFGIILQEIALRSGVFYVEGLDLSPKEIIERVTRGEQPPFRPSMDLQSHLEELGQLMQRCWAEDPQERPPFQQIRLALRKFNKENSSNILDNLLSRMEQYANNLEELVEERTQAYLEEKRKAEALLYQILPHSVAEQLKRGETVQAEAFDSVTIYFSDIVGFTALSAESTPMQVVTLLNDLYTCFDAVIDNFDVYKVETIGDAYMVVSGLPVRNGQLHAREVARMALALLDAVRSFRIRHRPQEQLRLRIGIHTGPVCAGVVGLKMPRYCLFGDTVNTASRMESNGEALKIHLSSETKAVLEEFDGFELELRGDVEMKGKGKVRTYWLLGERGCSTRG
As to the kind of experiment: Rat NPRA cGMP activity assay (HTRF) in HEK293 cells overexpressing NPRA. Type of data set: cell-based. As to conditions: cGMP Assay (EC50, pM) w/Casein rNPRA, assay buffer with 0.1% casein. In short, it runs like this: (§1)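 Tetracycline-induced (300 ng/mL, 48 h) T-Rex HEK293 cells expressing NPRA, 4000 cells/well, treated 40 min at room temperature with polypeptide (8 points, 10 μM to 1 pM) in HBSS/HEPES buffer with 0.5 mM IBMX, pH 7.4. cGMP by HTRF, normalised to 100 nM amidated rat ANP and buffer.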

In data set [3] the target is T2, human NPRA (Homo sapiens, UniProt P16066).
T2 construct: Full-Length cDNA Cloning and Generation of Cell Lines Overexpressing Natriuretic Peptide Receptors (NPRs); expressed in transfected cells; host or cells: Jump-in T-Rex HEK293 cells, pJTI R4 CMV-TO MCS pA vector, tetracycline induction
T2 sequence (P16066 33-1061): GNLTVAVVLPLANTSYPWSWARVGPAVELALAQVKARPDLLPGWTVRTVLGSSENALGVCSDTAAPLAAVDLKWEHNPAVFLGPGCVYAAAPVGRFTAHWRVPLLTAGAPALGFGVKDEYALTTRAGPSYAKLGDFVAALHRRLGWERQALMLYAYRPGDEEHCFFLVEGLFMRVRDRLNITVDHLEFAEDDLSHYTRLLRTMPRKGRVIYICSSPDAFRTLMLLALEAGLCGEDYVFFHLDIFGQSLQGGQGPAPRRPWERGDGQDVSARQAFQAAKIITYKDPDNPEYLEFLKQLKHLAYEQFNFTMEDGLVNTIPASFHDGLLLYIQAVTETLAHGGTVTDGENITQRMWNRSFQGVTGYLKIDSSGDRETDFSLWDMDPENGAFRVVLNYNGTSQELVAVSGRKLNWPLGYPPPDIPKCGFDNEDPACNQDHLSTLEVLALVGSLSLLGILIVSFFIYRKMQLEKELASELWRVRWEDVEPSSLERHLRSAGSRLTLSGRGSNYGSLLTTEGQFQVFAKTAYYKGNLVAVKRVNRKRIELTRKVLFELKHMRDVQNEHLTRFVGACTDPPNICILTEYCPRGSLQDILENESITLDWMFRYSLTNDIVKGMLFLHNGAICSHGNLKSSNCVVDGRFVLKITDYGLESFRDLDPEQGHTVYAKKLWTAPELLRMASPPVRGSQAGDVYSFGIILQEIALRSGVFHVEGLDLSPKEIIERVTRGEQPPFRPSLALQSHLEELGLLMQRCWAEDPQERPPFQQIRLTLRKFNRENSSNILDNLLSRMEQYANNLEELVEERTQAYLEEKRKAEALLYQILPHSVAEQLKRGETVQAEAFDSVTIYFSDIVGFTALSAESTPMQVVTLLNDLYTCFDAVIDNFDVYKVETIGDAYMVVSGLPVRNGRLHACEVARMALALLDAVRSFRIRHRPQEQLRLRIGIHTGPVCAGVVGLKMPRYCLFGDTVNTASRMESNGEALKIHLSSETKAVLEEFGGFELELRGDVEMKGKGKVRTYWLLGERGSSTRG
As to the kind of experiment: Human NPRA cGMP activity assay (HTRF) in HEK293 cells overexpressing NPRA. It counts as cell-based. The following applies: cGMP Assay (EC50, pM) w/Casein hNPRA, assay buffer with 0.1% casein. The method in brief: as §1

A word on the CL/F: it is clearance divided by bioavailability, as obtained after extravascular dosing. In the case of `CC[C@H](C)[C@@H]1NC(=O)[C@H](CCCNC(=N)N)NC(=O)[C@H](CC(=O)O)NC(=O)[C@H]([C@@H](C)CC)NC(=O)[C@H](CCCNC(=N)N)NC(=O)CNC(=O)CNC(=O)[C@H](Cc2ccccc2)NC(=O)[C@@H](NC(=O)[C@H](CO)NC(=O)[C@H](CO)NC(=O)[C@H](CCCNC(=N)N)NC(=O)CCNC(=O)[C@H](CCCCN)NC(=O)[C@H](CCC(=O)O)NC(=O)CCOCCOCCOCCOCCOCCOCCOCCOCCOCCOCCOCCOCCOCCOCCOCCOCCOCCOCCOCCOCCOCCOCCOCCOCCNC(=O)CNC(=O)[C@H](CCCCN)NC(=O)[C@H](CCC(=O)O)NC(=O)[C@H](CCCCN)NC(=O)[C@H](CCC(=O)O)NC(=O)[C@H](CCCCN)NC(=O)[C@H](CCC(=O)O)NC(=O)CC[C@H](NC(=O)CCCCCCCCCCCCCCCCCCC(=O)O)C(=O)O)CSCSC[C@@H](C(=O)N2CCC[C@H]2C(=O)N[C@@H](CO)C(=O)N[C@@H](Cc2ccccc2)C(=O)N[C@@H](CCCNC(=N)N)C(=O)N[C@@H](Cc2c[nH]cn2)C(=O)NCC(=O)NCC(=O)N2CCC[C@H]2C(=O)N[C@@H](CO)C(=O)N[C@@H](CO)C(=O)NCC(=O)N[C@@H](C)C(=O)N2CCC[C@H]2C(=O)N2CCC[C@H]2C(=O)N2CCC[C@H]2C(=O)N[C@@H](CO)C(N)=O)NC(=O)CNC(=O)[C@H](CC(C)C)NC(=O)CNC(=O)[C@H](CO)NC(=O)[C@H](Cc2ccc(O)cc2)NC(=O)[C@H](Cc2c[nH]cn2)NC(=O)CNC1=O` [Example 62], in data set [1], the CL/F is 0.395 mL/min/kg and the half-life was 10 h.

The term EC50 denotes the concentration that produces a half-maximal response. Higher therefore signals weaker potency. The compound `CC[C@H](C)[C@@H]1NC(=O)[C@H](CCCNC(=N)N)NC(=O)[C@H](CC(=O)O)NC(=O)[C@H]([C@@H](C)CC)NC(=O)[C@H](CCCCN)NC(=O)CNC(=O)CNC(=O)[C@H](Cc2ccccc2)NC(=O)[C@@H](NC(=O)[C@H](CO)NC(=O)[C@H](CO)NC(=O)[C@H](CCCNC(=N)N)NC(=O)[C@H](CCCCN)NC(=O)[C@H](Cc2ccncc2)NC(=O)[C@H](CO)NC(=O)CNC(=O)[C@H](CCCCN)NC(=O)[C@H](CCC(=O)O)NC(=O)[C@H](CCCCN)NC(=O)[C@H](CCC(=O)O)NC(=O)[C@H](CCCCN)NC(=O)[C@H](CCC(=O)O)NC(=O)CC[C@H](NC(=O)CCCCCCCCCCCCCCCCCCC(=O)O)C(=O)O)CSSC[C@@H](C(=O)N2CCC[C@H]2C(=O)N[C@@H](CO)C(=O)N[C@@H](Cc2ccccc2)C(=O)N[C@@H](CCCNC(=N)N)C(=O)N[C@@H](Cc2c[nH]cn2)C(=O)NCC(=O)NCC(=O)N2CCC[C@H]2C(=O)N[C@@H](CO)C(=O)N[C@@H](CO)C(=O)NCC(=O)N[C@@H](C)C(=O)N2CCC[C@H]2C(=O)N2CCC[C@H]2C(=O)N2CCC[C@H]2C(=O)N[C@@H](CO)C(N)=O)NC(=O)CNC(=O)[C@H](CC(C)C)NC(=O)CNC(=O)[C@H](CO)NC(=O)[C@H](CCC(N)=O)NC(=O)[C@H](Cc2c[nH]cn2)NC(=O)CNC1=O` [Example 30] showed an EC50 in data set [2] of 1130 pM. Besides, in data set [1], the CL/F is 0.21 mL/min/kg and the half-life is 16 h.

Take `CC[C@H](C)[C@@H]1NC(=O)[C@H](CCCNC(=N)N)NC(=O)[C@H](CC(=O)O)NC(=O)[C@H]([C@@H](C)CC)NC(=O)[C@H](CCCNC(=N)N)NC(=O)CNC(=O)CNC(=O)[C@H](Cc2ccccc2)NC(=O)[C@@H](NC(=O)[C@H](CO)NC(=O)[C@H](CO)NC(=O)[C@H](CCCNC(=N)N)NC(=O)CCNC(=O)[C@H](CCCCN)NC(=O)[C@H](CO)NC(=O)CNC(=O)[C@H](CCCCN)NC(=O)[C@H](CCC(=O)O)NC(=O)[C@H](CCCCN)NC(=O)[C@H](CCC(=O)O)NC(=O)[C@H](CCCCN)NC(=O)[C@H](CCC(=O)O)NC(=O)CC[C@H](NC(=O)CCCCCCCCCCCCCCCCCCC(=O)O)C(=O)O)CSCSC[C@@H](C(=O)N2CCC[C@H]2C(=O)N[C@@H](CO)C(=O)N[C@@H](Cc2ccccc2)C(=O)N[C@@H](CCCNC(=N)N)C(=O)N[C@@H](Cc2c[nH]cn2)C(=O)NCC(=O)NCC(=O)N2CCC[C@H]2C(=O)N[C@@H](CO)C(=O)N[C@@H](CO)C(=O)NCC(=O)N[C@@H](C)C(=O)N2CCC[C@H]2C(=O)N2CCC[C@H]2C(=O)N2CCC[C@H]2C(=O)N[C@@H](CO)C(N)=O)NC(=O)CNC(=O)[C@H](CC(C)C)NC(=O)CNC(=O)[C@H](CO)NC(=O)[C@H](Cc2ccc(O)cc2)NC(=O)[C@H](Cc2c[nH]cn2)NC(=O)CNC1=O` [Example 65]: the EC50 in data set [2] is 7410 pM; in data set [3], 614 pM.
